PubChem BioAssay (EPA / NIEHS)
This is a selection; strong and weak results do not stand in their true shares. Active and inactive are the calls of the source. Rule for the calls: active = hit-call score of the fitted dose curve at least 0.9, where 1 is the maximum; inactive = score below 0.9.

assay: ATG_NFI_CIS: Attagene CIS-FACTORIAL HepG2 Assay for human Nuclear Factor I (NFI) (AID 2282989); details: HepG2 cis-regulatory reporter, NFI response element transcription; actives raise or lower the signal
Procedure: ATG_CIS is a cell-based, multiplexed-readout assay that uses HepG2, a human liver cell line, with measurements taken at 24 hours after chemical dosing in a 24-well plate.ATG_NFI_CIS is one of 52 assay component(s) measured or calculated from the ATG_CIS assay. It is designed to make measurements of mRNA induction, a form of inducible reporter, as detected with fluorescence intensity signals by Reverse transcription polymerase chain reaction (RT-PCR) and Capillary electrophoresis technology.Data from the assay component ATG_NFI_CIS was analyzed into 1 assay endpoint. This assay endpoint, ATG_NFI_CIS, was analyzed with bidirectional fitting relative to DMSO as the negative control and baseline of activity. Using a type of inducible reporter, measures of mRNA for gain or loss-of-signal activity can be used to understand the reporter gene at the transcription factor-level as they relate to the gene NFIA. Furthermore, this assay endpoint can be referred to as a primary readout, because this assay has produced multiple assay endpoints where this one serves a reporter gene function. To generalize the intended target to other relatable targets, this assay endpoint is annotated to the dna binding intended target family, where the subfamily is nuclear factor I.
Human liver HepG2 cells are transiently transfected with multiple reporter transcription units (MRTUs) in 6-well plates using FuGene 6 reagent (Roche; 3 ml FuGene/1 mg DNA). The MRTU constructs are regulated by a cis-regulating element (promoter). […] A major difference between the CIS and TRANS system is that in CIS activities of endogenous TFs are measured, whereas the TRANS assay evaluates changes in activities of exogenous, chimeric NR-Gal4 proteins. […] At the end of 24 hour incubation, total RNA was isolated using TriZol reagent (Invitrogen). The isolated RNA is then reverse-transcribed using oligo(dT) primer and Mo-MLV reverse transcriptase (Invitrogen) with DNAse I (Ambion) treatment for 30 min. The one-tenth of the produced cDNA was amplified by PCR using Taq DNA polymerase (Invitrogen) and two reporter sequence-specific primers. The PCR products were fluorescently labeled by primer extension with 6-arboxyfluorescein (6-FAM) 5'-labeled reporter sequence-specific primer (2 min at 95 C, 20 s at 68 C and 10 min at 72 C) and these products were digested with 5U of HpaI (New England Biolabs) for 2h at 37 C. The fragments were purified using Qiaquick PCR columns (Qiagen), analyzed on an ABI 3130xL genetic analyzer (Applied Biosystems) with peak positions identified by using a set of X-rhodamine (ROX)-labeled MapMarker1000 molecular weight standards (BioVentures). The raw capillary electrophoresis data was processed using Attagraph software (Attagene).

Structure (SMILES)	outcome	AC50
O=[p+]1oc2ccccc2c2ccccc21 (configuration not stated)	inactive	
O=C(Cl)Oc1ccccc1	inactive	
O=C1C2CC=CCC2C(=O)N1SC(Cl)(Cl)C(Cl)Cl (configuration not stated)	inactive	
CCCCO[P+](=O)OCCCC	inactive	
CC(C)OP(=S)(OC(C)C)SCCNS(=O)(=O)c1ccccc1	inactive	
O=P(Cl)(Oc1ccccc1)Oc1ccccc1	inactive	
O=[P+](Oc1ccccc1)Oc1ccccc1	inactive	
Cc1cc([N+](=O)[O-])cc([N+](=O)[O-])c1O	inactive	
CCCCC(CC)CO[P+](=O)OCC(CC)CCCC (configuration not stated)	inactive	
O=[N+]([O-])c1ccc([N+](=O)[O-])cc1		active: 60.6 µM
O=C(Cl)OCCOC(=O)Cl	inactive	
ClP(Cl)c1ccccc1	inactive	
O=[As]c1ccccc1 (configuration not stated)		active: 0.279 µM
CN(C(=O)Cc1cccc2occc12)[C@H]1CC[C@@]2(CCCO2)C[C@@H]1N1CCCC1	inactive	
CC(C)CCCCCCCOP(OCCCCCCCC(C)C)Oc1ccccc1	inactive	
CCCCOP(OCCCC)OCCCC	inactive	
N#CSc1ccc([N+](=O)[O-])cc1[N+](=O)[O-]	inactive	
